Experimental data reported in patent publication US11208404B2 (PERENNA PHARMACEUTICALS, INC., priority 2017, dated 2021).

Protein sequences, listed by entry. Tags and fused reporters are not part of them.
UniProt Q6UWP7, whole entry, species assumed: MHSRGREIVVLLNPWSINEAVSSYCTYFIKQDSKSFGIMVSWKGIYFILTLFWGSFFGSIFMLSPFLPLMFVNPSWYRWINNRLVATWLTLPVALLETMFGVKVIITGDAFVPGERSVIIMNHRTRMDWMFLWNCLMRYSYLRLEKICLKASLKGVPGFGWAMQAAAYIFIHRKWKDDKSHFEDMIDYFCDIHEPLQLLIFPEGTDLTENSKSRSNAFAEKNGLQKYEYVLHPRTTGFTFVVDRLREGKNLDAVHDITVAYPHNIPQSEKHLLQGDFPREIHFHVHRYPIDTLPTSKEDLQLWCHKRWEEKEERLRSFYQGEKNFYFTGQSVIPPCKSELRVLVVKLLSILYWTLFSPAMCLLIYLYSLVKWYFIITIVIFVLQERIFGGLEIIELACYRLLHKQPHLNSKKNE

What was measured:
[1] = molecular target: T1, ALCAT1 (Homo sapiens (Human), UniProt Q6UWP7); experiment: In vitro acyltransferase assay for ALCAT1 inhibitors; format: biochemical; details: for IC50: ALCAT1 enzyme activity, triplicates, GraphPad
Description: The human ALCAT1 protein were expressed in Spodoptera frugiperda (Sf9) insect cells by using a Bac-to-Bac baculovirus expression system (Invitrogen) according to the manufacturer's instruction. High-titer recombinant baculovirus expressing the human ALCAT1 protein was generated by several rounds of viral amplification. The Sf9 cells were typically infected with recombinant baculovirus for 3 days, harvested in ice-cold phosphate-buffered saline (PBS), and homogenized in 20 mm NaCl by going through French press. The total cell lysates were centrifuged at 10,000×g for 1 hours at 4° C. to eliminate the nucleus fraction, followed by ultracentrifugation at 100,000×g to pallet the membrane fraction. The membrane fraction was resuspended in enzymatic buffer that contain 10% glycerol, quantified for protein concentration, aliquoted, and stored at −80° C.
ALCAT1 enzymatic activity was determined by measuring the conversion of monolysocardiolipin (MLCL) to cardiolipin or lysophosphatidylglycerol (LPG) to phosphatidylglycerol (PG) in an enzymatic reaction mixture that contained 50 mm Tris/HCl, pH 7.0, 100 μm lysophospholipids, 25 μm [^14C]acyl-CoA (50 mCi/mmol, American Radiolabeled Chemicals, Inc), and membrane fraction (0.5-2.5 μg) in a total volume of 200 μl. The reaction was incubated at room temperature for 30 min. The lipids were extracted will chloroform, dried, and separated by thin layer chromatography (TLC) with chloroform:hexane:methanol:acetic acid (50:30:10:5, v/v) or chloroform:methanol:water (65:25:4, v/v). After separation, TLC plates were exposed to a Phosphorlmager screen to visualize the radiolabeled products with a Molecular Dynamics Typhoon Scanner (Sunnyvale, Calif.). In some experiments, NBD-CoA was used at 100 μM to replace the [^14C]acyl-CoA in the enzymatic reaction. All quantitative data were expressed as mean±S.E. Statistical analyses for differences between two groups were carried out using a Student's t test.
Compound inhibitors for ALCAT1 enzyme were analyzed by an in vitro enzymatic assay as detailed above. Compound inhibitors were added to the enzymatic mixture at 1-20 μM concentrations before the start of the acyltransferase reaction.
Where multiple measurements were taken this is indicated by a “/” between multiple values.
IC50 values for each compound were analyzed in triplicates, and calculated by GraphPad software.

[2] = molecular target: T1, ALCAT1; experiment: Cell-based assay for ALCAT inhibitor compounds (H9C2 cells); details: H9C2 vector cell line and H9C2 with stable overexpression of ALCAT1
Experimental: The assay was performed on the H9C2 vector cell line and H9C2 with stable overexpression of ALCAT1. Materials used in the protocol were CoA, LPG, compounds, chloroform, methanol, 0.9% KCl, 6-well-plates, 1.5 mL tubes, DMEM, FBS, P/S and PBS.
Cells were seeded in 6-well-plates, 8×10^5 cells/well, and cultured at 37° C. in 5% CO2 overnight. Cells were then pretreated with selected compounds (3 μM) for 1 hr and incubated with CoA (5 μM) and LPG (100 μM) with or w/o selected compound (3 μM) for a further 3 hrs.
Cells were washed once with ice-cold PBS, collected in ice-cold PBS and centrifuged at 5000 rpm for 5 min at 4° C. 200 μL of chloroform: methanol (2:1) was added to the cell pellet, which was vortexed to suspend the cells and incubated at RT for 1 hr.
40 μL of 0.9% KCl was added and the sample was vortexed before centrifugation at 10000 rpm for 5 min at RT. The aqueous phase (upper layer) was discarded and the organic phase (lower layer) was loaded to a TLC plate (10 cm×20 cm), 40 μL/sample.
The plates were developed in chloroform: methanol: water (65:25:4) for about 30 min and scanned using a Typhoon Scanner. The bands intensity was analysed using ImageJ and the inhibition activity of the tested compounds was calculated.
Compound inhibitors for ALCAT1 enzyme were analyzed by an in vitro cell-based assay as detailed above.

[3] = 1 μM compound, in vitro enzymatic assay

Structure (SMILES) | IC50 [1] [nM] | inhibition at 1 µM [1, 3] [%] | further results
CCc1ccc(OC)c(C(=O)Nc2cc(-c3nnc(-c4ccco4)o3)ccn2)c1 [Compound 393] | 140 |  | 
CCOc1ccc(I)cc1C(=O)Nc1cccc(-c2nnc(-c3ccco3)o2)c1 [Compound 200, 2-Ethoxy-N-(3-(5-(furan-2-yl)-1,3,4-oxadiazol-2-yl)phenyl)-5-iodobenzamide] |  |  | % inh @ 3 μM ([2]; 3 μM compound): 31%; inhibition at 3 µM ([2]; H9c2, 3 μM compound): 26%
O=C(Nc1cccc(-c2nnc(-c3ccco3)o2)c1)c1cccc([N+](=O)[O-])n1 [Compound 346] | 180 | 86 | 

Continued, in another order:

IC50 [1] [nM] | inhibition at 1 µM [1, 3] [%] | Structure (SMILES) | further results
890 |  | O=C(Nc1cccc(-c2nnc(-c3ccco3)o2)c1)c1ccccc1Cl [Compound 3] | % inh @ 10 μM ([1]; 10 μM compound, in vitro enzymatic assay): 48% and 89%
630 | 77 | O=C(Nc1cccc(-c2nnc(-c3ccco3)o2)c1)c1ccccc1OCCF [Compound 274] | % inh @ 1 μM [1, 3]: 82%
610 |  | COc1c(N)cc(Cl)cc1C(=O)Nc1cc(-c2nnc(-c3ccco3)o2)ccc1F [Compound 354] | 

“And” between values parts separate entries of the source, which are not always exact repeats. Identical values can stand only once.
